# Measured values published in patent US20250115600A1, “COVALENT MODIFIERS OF AKT1 AND USES THEREOF” (Terremoto Biosciences, Inc., priority 2022, published 2025).
# By UniProt entry, the sequences of proteins in these tests, tags left out. Where a name states a change or a piece, a line headed by the entry shows the natural chain unless it says otherwise.
# UniProt P31751: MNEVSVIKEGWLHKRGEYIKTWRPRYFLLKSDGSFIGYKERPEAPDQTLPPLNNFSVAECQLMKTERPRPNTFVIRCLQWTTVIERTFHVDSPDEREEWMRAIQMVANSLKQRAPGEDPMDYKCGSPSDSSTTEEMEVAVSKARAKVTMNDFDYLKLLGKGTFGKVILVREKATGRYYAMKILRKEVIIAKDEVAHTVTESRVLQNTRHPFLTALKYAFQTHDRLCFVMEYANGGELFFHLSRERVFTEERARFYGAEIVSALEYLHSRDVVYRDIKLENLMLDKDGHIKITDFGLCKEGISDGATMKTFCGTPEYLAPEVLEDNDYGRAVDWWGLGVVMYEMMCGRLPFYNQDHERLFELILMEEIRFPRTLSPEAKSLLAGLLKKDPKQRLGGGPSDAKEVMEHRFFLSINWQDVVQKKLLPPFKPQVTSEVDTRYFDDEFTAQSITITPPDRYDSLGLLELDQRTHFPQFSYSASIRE
# UniProt P31749, whole entry E17K: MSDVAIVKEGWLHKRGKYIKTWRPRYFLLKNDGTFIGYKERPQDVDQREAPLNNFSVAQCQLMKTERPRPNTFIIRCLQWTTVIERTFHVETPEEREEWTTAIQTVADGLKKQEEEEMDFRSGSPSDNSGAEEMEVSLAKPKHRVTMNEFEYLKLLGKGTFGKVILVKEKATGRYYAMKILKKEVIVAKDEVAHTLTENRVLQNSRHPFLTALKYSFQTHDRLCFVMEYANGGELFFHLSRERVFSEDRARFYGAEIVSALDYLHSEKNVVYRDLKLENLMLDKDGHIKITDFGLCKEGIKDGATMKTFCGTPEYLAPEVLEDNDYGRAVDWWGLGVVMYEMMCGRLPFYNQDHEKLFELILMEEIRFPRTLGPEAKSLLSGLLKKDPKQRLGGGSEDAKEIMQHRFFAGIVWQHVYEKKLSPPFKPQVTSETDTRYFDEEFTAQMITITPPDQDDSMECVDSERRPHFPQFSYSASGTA
# Legend:
# AKT2 = AKT2 (Homo sapiens (Human), UniProt P31751); test: Live cell target engagement (NanoBRET) in HEK293 cells; type: cell-based; conditions: HEK293, 2 hours at 37° C.
# AKT1 E17K = AKT1 E17K (Homo sapiens (Human), UniProt P31749, E17K); test: as above; type: cell-based
structure (smiles),measurement,setting,value
"Nc1ncccc1-c1nc2ccc(N3C4CCC3COC4)nc2n1-c1ccc(CNC(=O)Cc2ccc(C=O)c(O)c2)cc1 [Example 9, N-(4-(2-(2-aminopyridin-3-yl)-5-(3-oxa-8-azabicyclo[3.2.1]octan-8-yl)-3H-imidazo[4,5-b]pyridin-3-yl)benzyl)-2-(4-formyl-3-hydroxyphenyl)acetamide]",IC50,AKT2,> 500 nM
same,AKT1 E17K IC50: Selectivity vs AKT1 WT,AKT1 E17K,18
same,AKT1 E17K IC50: Selectivity vs AKT2,AKT1 E17K,>160
same,IC50,"AKT1 E17K; HEK293, 2 hours at 37° C.",< 100 nM
